{
  "source": "patent US20200093932A1",
  "about": "“TREATMENT OF CANCER” (BlueLink Pharmaceuticals, Inc., priority 2016, published 2020)",
  "tested_on": "B16.F10 mouse melanoma tumor model",
  "test": "Example 1: CRLX101 with NLG-919 analog or INCB-024360 analog, tumor growth inhibition and delay",
  "type": "in vivo",
  "conditions": "same dosing; mean tumor volume vs vehicle when the control group reached the tumor volume endpoint",
  "data": [
    {"compound": "Nc1nonc1C(=NO)Nc1ccc(F)c(Cl)c1", "note": "[INCB-024360 analog]", "values": [
      {"measurement": "TGI vs. Control (%)", "result": 6, "unit": "%"}
    ]}
  ]
}
